# Binding of CDR-mutated scFvs to a peptide of the spike HR2 region

Target peptide (SARS-CoV-2 spike, HR2 region): PDVDLGDISGINAS

Ab-14 is the parent antibody, in scFv form: VH, then the linker GGGGSGGGGSGGGGS, then VL. The heavy chain is unchanged in all variants.
VH: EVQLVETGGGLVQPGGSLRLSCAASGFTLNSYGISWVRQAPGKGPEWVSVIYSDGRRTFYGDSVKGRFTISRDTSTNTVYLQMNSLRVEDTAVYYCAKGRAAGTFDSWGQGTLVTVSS
VL: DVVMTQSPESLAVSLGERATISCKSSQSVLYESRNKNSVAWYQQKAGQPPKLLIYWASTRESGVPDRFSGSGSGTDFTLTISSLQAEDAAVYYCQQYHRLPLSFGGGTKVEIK

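The parent was found by panning a naive human phage display library on the peptide. The variants were designed computationally from a first round of random CDR variants and then made and measured. Group labels follow the data file (Ctrl: baseline library sampled from a position-specific scoring matrix, with some repeated check sequences; En: ensemble of fine-tuned language models; GP: Gaussian process model; HC: hill climbing; Gen: genetic algorithm; Gibbs: Gibbs sampling; a sequence that several methods proposed may carry one label only). The assay is AlphaSeq: two haploid yeast populations carry antibody and antigen on their surface. After mating in shaken culture at 30 °C for 16 h, diploids were selected and their barcode pairs sequenced. Each replicate has its own calibration line, from reference interactions of the BCL2 family. Each pool was mated in six replicate cultures.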

Each variant is given by its three light chain CDRs, as the data file delimits them; those of the parent are KSSQSVLYESRNKNSVA, WASTRES, QQYHRLPLS.
Values are log10 of the apparent Kd in nM; lower means stronger binding.
A mean of the replicates is given; it leaves out those without a signal.
"nd" marks a missing value. The strain was present, yet no cells mated with the target were sequenced in that replicate, which points to weak or no binding.
The authors' rule: three or more of the six replicates give a measured affinity, fewer mean a poor binder.

| CDR-L1 | CDR-L2 | CDR-L3 | group | log10 Kd, replicates | mean, log10 nM |
|---|---|---|---|---|---|
| KVSQSVLYESRMKNSVA | DASTRSS | QQYHRLPLS | GP_HC | -0.13 / -0.26 / -0.23 / -0.30 / -0.35 / -0.13 | -0.23 |
| HQSPSVLYESRNKNSVA | NGSTRES | QQYHRLPLS | GP_HC | 1.28 / 1.10 / 1.30 / 1.45 / 1.56 / 1.34 | 1.34 |
| KVSQSELYESRNKNSVA | EASTREE | QQYHRLPLS | GP_Gen | -0.23 / -0.74 / -0.64 / -0.85 / -0.71 / -0.44 | -0.60 |
| KIGMTLNQLLHQKNNVA | DLVERED | QQYFRLPLS | En_Gen | 0.20 / 0.23 / -0.12 / 0.24 / 0.44 / 0.24 | 0.21 |
| KLQQSVLYESRNKNSVA | QASTRSD | QCYHRLPLS | GP_Gibbs | 0.73 / 0.44 / 0.60 / 0.70 / 0.69 / 0.55 | 0.62 |
| MISDLTYYGSRNKNSVA | DLSTRGS | QQYHRLPLS | En_HC | -0.26 / -0.19 / -0.26 / -0.31 / -0.42 / -0.16 | -0.27 |
| MISGSVMSESRLKNSVA | QTTTRES | QQYDRFPLS | En_HC | 1.69 / 2.20 / 1.52 / 1.82 / 1.29 / 1.12 | 1.61 |
| KLGQESYNSTYAMDAVA | DQNTADE | QHYSRLPLT | En_Gibbs | nd / nd / nd / nd / nd / nd | nd |
| KLSQSELYESRNKNSVA | EASKRES | QQYHRLPLS | GP_Gen | -0.25 / -0.40 / -0.38 / -0.39 / -0.28 / -0.16 | -0.31 |
| NVGQLMDGMTRNRNNVA | HQSTRED | QHYHRLPLS | En_HC | 0.31 / 0.50 / 0.34 / 0.01 / 0.56 / 0.44 | 0.36 |
| KLSQSVWYESRNSNSVA | NASNRLS | QQYHRLPLS | GP_Gibbs | 0.29 / 0.13 / 0.01 / -0.01 / -0.08 / 0.08 | 0.07 |
| KLSQSVTYNSRDKNSVA | WASTRES | QQYHRLPLS | Ctrl | nd / 2.60 / nd / nd / 2.40 / nd | 2.50 |
| KFFQSGLDDMRNDNSVA | SASTRLS | QQYHRLPLS | GP_Gibbs | 0.34 / 0.51 / -0.10 / 0.22 / 0.05 / 0.21 | 0.21 |
| MISQMYNMGQFAINSVA | QAQERNA | QQYDRLPLI | En_Gen | nd / nd / nd / nd / 2.51 / nd | 2.51 |
| KSSQSVLMESRNNNSVA | WASTRES | QQYHILPLS | Ctrl | nd / 2.38 / 2.61 / nd / nd / nd | 2.50 |
| IIEQGEYEQEQHKNAIA | DGETRMR | QQYYKLPLV | En_Gibbs | 0.52 / -0.04 / 0.16 / 0.13 / 0.01 / -0.02 | 0.13 |
| KLMQSWLGQSLNKNSVA | NASQREH | QQYHRLPLS | GP_Gibbs | 0.18 / 0.10 / 0.20 / -0.02 / 0.12 / -0.02 | 0.09 |
| KSSQSVLYESRNKNSVA | GASSRES | QQYHRLPLS | GP_HC | 0.78 / 0.54 / 0.58 / 0.57 / 0.50 / 0.83 | 0.63 |

Continued, with the values leading:

| log10 Kd, replicates | mean, log10 nM | CDR-L1 | CDR-L2 | CDR-L3 | group |
|---|---|---|---|---|---|
| nd / 2.31 / nd / 1.15 / nd / nd | 1.73 | KSSQSVLYESQNKNIVA | EASTRES | QQYHRLPLS | Ctrl |
| 0.21 / 0.24 / 0.32 / 0.10 / -0.11 / 0.38 | 0.19 | KGMGSMLYEQRMKNSVA | NASQRMS | QQYHRLPLS | GP_Gibbs |
| 0.50 / 0.68 / 0.57 / 0.59 / 0.66 / 0.99 | 0.66 | HITMGMYVSGRHMSNIA | QAETRAK | QQYDRLPLI | En_Gen |
| 0.85 / 0.11 / 0.16 / -0.02 / 0.17 / 0.22 | 0.25 | KLKLSNSVSLRGTRAIA | DGSTRAH | QQYHRLPLT | En_Gibbs |
| 0.62 / 0.32 / 0.39 / 0.47 / 0.67 / 0.33 | 0.47 | KFSQWWLYESRTKNSVA | NASTRES | QQYHRLPLS | GP_HC |
| 1.14 / 0.67 / 0.49 / 0.73 / 1.33 / 0.84 | 0.87 | MISQVMNTLTRHGQNVA | DLSERED | QQYFRLPLS | En_Gen |
| 0.14 / 0.39 / -0.29 / 0.04 / 0.34 / 0.35 | 0.16 | KLSMVTGHMSVAKNNVA | EMETREN | QQYDRLPLS | En_Gen |
| 0.67 / 0.56 / 0.43 / 0.44 / 0.45 / 0.48 | 0.51 | KLMQSTLYESRNKNSVA | NASTRLS | QQYHRLPLS | GP_HC |
| 0.00 / -0.26 / -0.26 / -0.31 / -0.27 / -0.16 | -0.21 | QINHQGLSANLNSKNVA | AKNLRVD | QQYNRLPLS | En_Gibbs |
| 1.66 / 0.61 / 0.55 / 0.68 / 0.33 / 0.65 | 0.75 | RITILSDYYLENRNAIA | ETSLKAH | QQYFMLPLT | En_Gibbs |
| -0.08 / -0.09 / -0.20 / -0.22 / -0.16 / 0.04 | -0.12 | KLSQSVDYQSRNKNSVA | NAQTRMS | QQYHRLPLS | GP_Gibbs |
| 1.22 / 0.54 / 0.79 / 0.92 / 1.05 / 0.92 | 0.91 | KLVNFMNRGTHMTSNIA | DAQNRSD | QQYARLPLA | En_Gen |
| 0.01 / -0.24 / -0.20 / -0.56 / -0.35 / -0.22 | -0.26 | KLEQSWLYESRNKNSVA | HASTRES | QQYHRLPLS | GP_Gen |
| 1.34 / 1.24 / 0.93 / 0.92 / 0.93 / 1.26 | 1.10 | KLSWSVELESRLKNSVA | HASTREW | QQYHRLPLS | GP_Gibbs |
| 1.32 / 1.80 / 1.39 / 1.41 / 1.63 / 1.51 | 1.51 | KFAMGLDYNNAHKSAVA | HADIRNI | QQYFRLPLD | En_Gibbs |
| nd / nd / nd / nd / nd / nd | nd | KDSQSVLYESRNKNNVA | WASTRES | QQYIRLPLS | Ctrl |
| 1.43 / 1.34 / 1.65 / 1.48 / 2.11 / 1.69 | 1.62 | KLRLHNLDFYEQENSIA | GVSNRAY | QQYYRLPLN | En_Gibbs |
| nd / nd / nd / nd / nd / nd | nd | KSSLSVDYESRMKNSVA | WASTRES | QQYHRAPLS | Ctrl |

From the list, the first 3 with no signal in any replicate:

CDR-L1	CDR-L2	CDR-L3	group	log10 Kd, replicates	mean, log10 nM
KLGQESYNSTYAMDAVA	DQNTADE	QHYSRLPLT	En_Gibbs	nd / nd / nd / nd / nd / nd	nd
KDSQSVLYESRNKNNVA	WASTRES	QQYIRLPLS	Ctrl	nd / nd / nd / nd / nd / nd	nd
KSSLSVDYESRMKNSVA	WASTRES	QQYHRAPLS	Ctrl	nd / nd / nd / nd / nd / nd	nd

The range of this assay differs from that of the first round, and the authors advise against merging the two.
Of ten entries with the parent sequence, four were seen in most replicates (averages 0.34 to 2.37), three in one and three in none, so single entries are noisy.
Three control strains display no target. For all light chain designs, 4% of the pairings with them gave a signal, with a median of 2.64 and one signal in twenty below 1.59, so weak values seen in few replicates may be background.

Source: Li et al. 2023 (doi:10.1038/s41467-023-39022-2), MIT Lincoln Laboratory and A-Alpha Bio; data file from the FLAb repository.